We go through two compounds from PMC3818563, “Effect of Iboga Alkaloids on µ-Opioid Receptor-Coupled G Protein Activation” (PLoS ONE, 2013).

The chains behind the UniProt entries cited, without tags or fusion partners.
UniProt P33535, whole entry: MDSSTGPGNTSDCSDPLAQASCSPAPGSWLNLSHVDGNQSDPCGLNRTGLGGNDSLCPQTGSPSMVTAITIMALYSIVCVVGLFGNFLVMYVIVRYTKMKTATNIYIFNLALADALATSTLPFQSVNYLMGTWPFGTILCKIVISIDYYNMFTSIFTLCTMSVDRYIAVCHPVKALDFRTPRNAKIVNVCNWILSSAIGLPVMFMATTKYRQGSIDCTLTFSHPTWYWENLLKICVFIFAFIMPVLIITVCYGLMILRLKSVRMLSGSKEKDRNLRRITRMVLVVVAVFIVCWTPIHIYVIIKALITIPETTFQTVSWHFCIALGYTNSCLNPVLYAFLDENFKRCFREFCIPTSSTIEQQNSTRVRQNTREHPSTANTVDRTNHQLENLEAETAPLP
UniProt P42866, whole entry: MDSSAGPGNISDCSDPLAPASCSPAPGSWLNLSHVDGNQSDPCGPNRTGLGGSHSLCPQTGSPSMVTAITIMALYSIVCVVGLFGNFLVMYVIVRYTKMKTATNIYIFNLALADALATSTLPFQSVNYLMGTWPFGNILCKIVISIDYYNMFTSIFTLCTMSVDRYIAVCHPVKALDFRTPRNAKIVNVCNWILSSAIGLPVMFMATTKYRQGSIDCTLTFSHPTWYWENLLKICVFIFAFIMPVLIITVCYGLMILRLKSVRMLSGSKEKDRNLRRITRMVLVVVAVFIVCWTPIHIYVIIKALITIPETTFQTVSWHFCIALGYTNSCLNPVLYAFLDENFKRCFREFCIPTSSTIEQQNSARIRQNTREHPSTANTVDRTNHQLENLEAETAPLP

By IC50 is commonly meant the concentration at which inhibition is half-maximal.

Read-outs that look alike come from different tables or passages of the source.

Data set [1] has as its target T1, μ-opioid receptor (MOR) (Rattus norvegicus, UniProt P33535). Put plainly: [35S]GTPγS binding in Sprague-Dawley rat thalamic membranes (Reith lab). Format: biochemical. More on the design: from tissue; host or cells: rat thalamus membranes (Sprague-Dawley; also Fischer F344 in the Janowsky lab). (GTPγS is a poorly hydrolysed GTP analogue; its binding reports G protein activation.)

Data set [2] deals with T1, μ-opioid receptor (MOR). Also noted: method as in PMID 9592058. The settings on record: rat thalamic membranes; read-out: EC50 for stimulating [35S]GTPγS binding; cited from earlier work.
Data set [3] has as its target T1, μ-opioid receptor (MOR). Put plainly: [35S]GTPγS binding in Sprague-Dawley / Fischer 344 rat thalamic membranes (Janowsky lab). Also noted: from tissue; host or cells: rat thalamus membranes (Sprague-Dawley; also Fischer F344 in the Janowsky lab). Format: biochemical. To be noted: n=2, error = range, N/A = no agonist activity detected.
The target of data set [4] is T1, μ-opioid receptor (MOR). Put plainly: [35S]GTPγS binding in Sprague-Dawley rat thalamic membranes (Childers lab). Format: biochemical. Also noted: from tissue; host or cells: rat thalamus membranes (Sprague-Dawley; also Fischer F344 in the Janowsky lab). The settings on record: read-out: Agonist activity EC50, N/A = no agonist activity detected.
Another data set concerns the target T2, rat rMOR (Rattus norvegicus, UniProt P33535).
T2 construct: expressed in transfected cells
Description: [35S]GTPγS binding in rMOR-expressing CHO cells (Janowsky lab). The settings on record: n=6, N/A = no agonist activity detected. Format: biochemical.

In another data set the target is T3, mouse mMOR (Mus musculus, UniProt P42866).
T3 construct: expressed in transfected cells
Description: [35S]GTPγS binding in mMOR-expressing HEK 293 cells (Reith lab). Format: biochemical.

Data set [5] in a line: Solubility of stocks in water.

With `C[C@@H](NC(=O)[C@@H](N)Cc1ccc(O)cc1)C(=O)NCC(=O)N(C)[C@@H](Cc1ccccc1)C(=O)NCCO` [DAMGO, [D-Ala^2, N-MePhe^4, Gly-ol]-enkephalin, reference compound], the EC50 on μ-opioid receptor (MOR) [1] was 238 ± 24 nM; at μ-opioid receptor (MOR) [2] it was 7.1 nM; on μ-opioid receptor (MOR) [3], 122 ± 59 nM; on μ-opioid receptor (MOR) [4] it was 210 ± 330 nM; on rat rMOR it was 34 ± 4 nM.
Take Ibogaine HCl: at mouse mMOR, the “Agonist activity Emax (%)” value was “no stimulation”. Further, the IC50 at mouse mMOR (read-out: IC50 for reduction of DAMGO stimulation) worked out at 17000 ± 4000 nM. For the same compound, the “effect on thalamic [35S]GTPγS binding relative to baseline” value at μ-opioid receptor (MOR) [1] was “reduced thalamic [^35S]GTPγS binding below baseline”. Moreover, the “maximal concentration in water stocks without drug coming out of solution” value in data set [5] is reported as at least 1 mM.
